Earlier results as cited in publication PMC7933454.
pKd: −log10 of the molar value.

Target: TNF (Homo sapiens) (UniProt P01375)
Assay: SPR

Substance: adalimumab IgG
- pKd: 10.31
